Results published in patent US10456339B2, “Organic hydroperoxide reduction in perfumery raw materials” (FIRMENICH SA, priority 2017, dated 2019).

What was measured:
[1] = Reduction of POV in sunflower oil using AKG-DiMeC12A; conditions: 0.3062 g in 15 mL
[2] = POV of mixed citrus oil treated with AKG-mono(DiMeC12A)
From the text: In addition to the treatment done in a model perfume as described above, a similar experiment was done in mixed citrus oil. A sample of mixed citrus oil was made by combining lime, orange, grapefruit, lemon, mandarin, tangerine, and bergamot oils, so that a variety of terpene hydroperoxides would be present in the treated mixture being tested. […] POV measurements were taken as a function of time after the addition. An untreated mixed citrus oil sample was handled similarly to the treated oil and also tested, because the POV can rise rapidly with handling of the sample (opening the bottle, agitation, etc.).

## CCCCCCCCCCCCN(C)C.CCCCCCCCCCCCN(C)C.O=C(O)CCC(=O)C(=O)O [AKG-DiMeC12A]
[1]
  solubility in sunflower oil: did not dissolve totally

## CCCCCCCCCCCCN(C)C.O=C(O)CCC(=O)C(=O)O [AKG-mono(DiMeC12A)]
[2]; 200 mg in 20 mL
  solubility in mixed citrus oil: a substantial portion of it did not dissolve
[2]; mixed citrus oil, 1.0% w/v, 28.0 hours after addition
  reduction in POV relative to untreated material: 94.2%
